The source of these data is PMC12010937, “Evaluation of FXR Activity in Pollutants Identified in Sewage Sludge and Subsequent in Vitro and in Vivo Characterization of Metabolic Effects of Triphenyl Phosphate” (Environmental Health Perspectives, 2025).

This assay has as its target T1, FXR (pCDNA3.1-hFXR, FXRE-luc) (Homo sapiens, UniProt Q96RI1).
T1 construct: host or cells: HEK 293T
T1 sequence (Q96RI1 1-486): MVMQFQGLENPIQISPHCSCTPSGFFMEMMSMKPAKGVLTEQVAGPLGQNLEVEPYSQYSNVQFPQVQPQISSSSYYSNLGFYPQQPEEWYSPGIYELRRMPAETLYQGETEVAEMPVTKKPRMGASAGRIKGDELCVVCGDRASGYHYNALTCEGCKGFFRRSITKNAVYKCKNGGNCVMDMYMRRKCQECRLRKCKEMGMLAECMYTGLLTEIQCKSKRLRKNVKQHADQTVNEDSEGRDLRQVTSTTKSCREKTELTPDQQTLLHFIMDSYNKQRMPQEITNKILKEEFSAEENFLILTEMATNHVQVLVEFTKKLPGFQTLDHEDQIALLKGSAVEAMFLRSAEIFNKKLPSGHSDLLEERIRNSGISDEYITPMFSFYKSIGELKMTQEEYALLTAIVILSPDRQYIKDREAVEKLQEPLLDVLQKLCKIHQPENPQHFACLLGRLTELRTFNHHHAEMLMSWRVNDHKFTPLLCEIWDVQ
The format is cell-based. To be noted: HEK 293T DLR assay.

In the case of `C/C=C1\C(=O)C[C@H]2[C@@H]3CCC4=CC(=O)CC[C@]4(C)[C@H]3CC[C@]12C` [GS, guggulsterone], the “Rate of FXR inhibition at the maximum exposure concentration” value is recorded as 76.75%.
